The results in this text go back to publication PMC12700817 (Nature Structural & Molecular Biology, 2025).

The chains behind the UniProt entries cited, without tags or fusion partners. Where a name states a change or a piece, a line headed by the entry shows the natural chain unless it says otherwise.
UniProt Q13200: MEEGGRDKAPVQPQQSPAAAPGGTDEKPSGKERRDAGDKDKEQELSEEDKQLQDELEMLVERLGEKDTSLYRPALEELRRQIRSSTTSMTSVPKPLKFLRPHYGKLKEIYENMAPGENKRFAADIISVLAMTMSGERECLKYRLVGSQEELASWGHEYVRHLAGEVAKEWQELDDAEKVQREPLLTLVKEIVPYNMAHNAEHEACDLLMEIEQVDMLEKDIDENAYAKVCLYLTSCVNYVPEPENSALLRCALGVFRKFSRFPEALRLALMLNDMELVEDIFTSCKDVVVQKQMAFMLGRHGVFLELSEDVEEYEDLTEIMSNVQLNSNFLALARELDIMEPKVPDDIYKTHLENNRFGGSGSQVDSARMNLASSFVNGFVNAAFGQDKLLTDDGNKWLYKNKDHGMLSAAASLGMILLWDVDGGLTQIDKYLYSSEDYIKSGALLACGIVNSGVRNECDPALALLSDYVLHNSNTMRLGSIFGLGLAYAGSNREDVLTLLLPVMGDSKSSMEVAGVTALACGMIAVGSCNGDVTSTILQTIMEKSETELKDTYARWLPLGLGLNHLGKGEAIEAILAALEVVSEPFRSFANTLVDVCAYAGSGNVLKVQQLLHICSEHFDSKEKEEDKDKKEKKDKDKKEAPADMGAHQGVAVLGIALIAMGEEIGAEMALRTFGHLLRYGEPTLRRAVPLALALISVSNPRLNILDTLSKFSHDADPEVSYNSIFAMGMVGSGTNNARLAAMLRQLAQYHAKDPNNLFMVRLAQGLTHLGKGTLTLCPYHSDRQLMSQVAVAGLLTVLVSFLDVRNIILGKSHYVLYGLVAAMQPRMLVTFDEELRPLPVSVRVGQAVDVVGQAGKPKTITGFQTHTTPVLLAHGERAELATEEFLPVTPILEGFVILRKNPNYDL

For this assay, the target named is human 26S proteasome (human (endogenous in HEK293) | human) (UniProt Q13200). Briefly: fluorescence polarisation; FAM-TXNL1 50 nM, proteasome titrated, FAT10 5 μM, NUB1 6 μM, MG132 20 μM (stalled in processing states); binding curve from the 900 s time points, 30 °C.

Regarding “N-terminally FAM-labeled TXNL1 (natural protein)”, the Kd came out at 35 nM.

In general, Kd refers to the free concentration of one partner at which half of the binding sites on the other are occupied at equilibrium, for simple one-to-one binding.
